Experimental data from ChEMBL document CHEMBL1154180, “Pyrazole-based arylalkyne cathepsin S inhibitors. Part II: optimization of cellular potency” (Bioorg Med Chem Lett, 2009).

Sequences of proteins named here, by UniProt entry; tags and fusion partners are left off.
UniProt P25774, whole entry: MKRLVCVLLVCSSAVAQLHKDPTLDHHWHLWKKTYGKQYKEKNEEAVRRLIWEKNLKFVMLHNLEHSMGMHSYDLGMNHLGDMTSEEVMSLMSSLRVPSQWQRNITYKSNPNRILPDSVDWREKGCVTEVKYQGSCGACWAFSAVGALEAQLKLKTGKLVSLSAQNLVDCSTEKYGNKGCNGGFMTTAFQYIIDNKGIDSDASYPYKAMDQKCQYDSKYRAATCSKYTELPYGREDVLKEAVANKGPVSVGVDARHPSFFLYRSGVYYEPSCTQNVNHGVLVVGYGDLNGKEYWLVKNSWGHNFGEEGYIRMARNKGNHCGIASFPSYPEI

Biological target: Cathepsin S (Homo sapiens, UniProt P25774)
Assay: Inhibition of cathepsin S in human JY cells assessed as invariant chain li degradation by Western blotting
Format: cell-based

## CC(NCc1ccc(C#Cc2cc(-c3nn(CCCN4CCOCC4)c4c3CN(S(C)(=O)=O)CC4)ccc2Cl)cc1)c1ccccc1 (stereo unspecified)
  IC50: 1000 nM
